Results published in patent EP1790337A2, “Methods and compounds for treating depression and other disorders” (priority 1998, dated 2000).

Test system: NMDA receptor
Assay: NMDA assay: fura-2 measurement of cytosolic calcium in cultured rat cerebellar granule cells
Format: cell-based
Details: read-out: fura2 data IC50, fura-2 [Ca2+]i

## CNCCC(Oc1ccccc1OC)c1ccccc1 (stereo not shown) [Nisoxetine]
  IC50: 1230 nM
